Results on one compound are retold here after US11325884B2, “Ketone inhibitors of lysine gingipain” (CORTEXYME, INC., priority 2016, dated 2022).

This experiment deals with lysine gingipain (Kgp) (Porphyromonas gingivalis (strain ATCC 33277 / DSM 20709 / CIP 103683 / JCM 12257 / NCTC 11834 / 2561), UniProt B2RLK2). In words: Inhibition of lysine gingipain, fluorogenic assay (Z-His-Glu-Lys-MCA). The settings on record: Table 4. Format: biochemical. As to the method: The specific assay conditions were as follows. Buffer: pH=7.5, 100 mM Tris-HCl, 75 mM NaCl, 2.5 mM CaCl2, 10 mM cysteine, 1% DMSO after all additions. Protein: 0.1 nM Kgp, isolated from culture of Porphyromonas gingivalis, as described by Pike et al. (J. Biol. Chem. 1994, 269(1), 406), and Potempa and Nguyen (Current Protocols in Protein Science. 2007, 21.20.1-21.20.27). Fluorogenic substrate: 10 μM Z-His-Glu-Lys-MCA. Time=90 minutes. Temperature=37° C.
Further assays to measure the inhibitory activity of compounds of the present invention against Kgp and cathepsins B, H, K, L, and S were conducted as described in Example 66. The capacities of the compounds to inhibit the activity of cathepsins F, V, and Z were also measured.

The structures appear in SMILES notation.

For `NCCCC[C@@H](NC(=O)C1CCCC1)C(=O)COc1c(F)ccc(F)c1F` [Compound 21], 0.09 nM corresponded to half-maximal inhibition (IC50).
